This note sets out measurements from patent US20230086703A1, “N-(4-(5-chloropyridin-3-yl)phenyl)-2-(2-(cyclopropanesulfonamido)pyrimidin-4-yl) butanamide derivatives and related compounds as human CTPS1 inhibitors for the treatment of proliferative diseases” (Step Pharma S.A.S., priority 2019, published 2023).

Read-outs that look alike come from different tables or passages of the source.

Assay [1] has as its target T1, human CTPS1 (Homo sapiens, UniProt P17812). Kind of assay: Human CTPS1 enzyme inhibition, ADP-Glo Max assay.
For assay [2], the target named is T1, human CTPS1. Kind of assay: RapidFire/MS-based enzyme selectivity assay (human CTPS1 versus CTPS2), CTPS1 isoform. The assay is classed as biochemical. The conditions noted are these: Table 16, human CTPS1 over human CTPS2, RapidFire/MS IC50 values. How it is done:
Human CTPS1 Versus CTPS2 Selectivity Assessment by RapidFire/MS Analysis.
The enzyme inhibitory activities against each target isoform of interest may be determined for the compounds of the invention using an optimised RapidFire high-throughput mass spectrometry (RF/MS) assay format. RF/MS assays for both human CTPS1 and CTPS2 may be performed in assay buffer consisting of 50 mM HEPES (Merck), 20 mM MgCl2, 5 mM KCl, 1 mM DTT, 0.01% Tween-20, pH to 8.0 accordingly. Human full-length active C-terminal FLAG-His-tag CTPS1 (UniProtKB—P17812, CTPS1[1-591]-[…] (CTPS1[1-591]-SEQ ID NO: 1)) may be obtained from Proteros biostructures GmbH. […]
Human CTPS (1 or 2) protein may be prepared in 1× assay buffer to the final working protein concentration required for the reaction. […] Each mixture may be incubated for an appropriate amount of time per isoform within the determined linear phase of the reaction at 25° C. […]
In all cases, the enzyme converts UTP to CTP. […] Readout for data analysis may be calculated as the ratio between the peak area of the product CTP and the internal standard ^13C9-^15N3-CTP. […]
(R=ratio/readout, P=product signal area, IS=internal standard signal area) […]
(I=Inhibition, Rneq=median of negative control readout values, Rpos=median of positive control readout values, Rsample=sample readout value) […]

For the compound `CC(C)(C(=O)Nc1ccc(-c2cccnc2)cc1Cl)c1csc(NS(=O)(=O)C2CC2)n1`, in assay [1] (read-out: Human CTPS1 Enzyme Inhibition, IC50 grouped by potency range (CTPS1), ADP-Glo Max assay, Table 10), the IC50 was in the range of 100 to 1000 nM.
For `CCOc1cncc(-c2cnc(NC(=O)C(C)(C)c3ccnc(NS(=O)(=O)C4CC4)n3)c(F)c2)n1`, in assay [1] (read-out: CTPS1 (Human CTPS1 Enzyme Inhibition data grouped by potency range, IC50), ADP-Glo Max assay, human full length CTPS1), the IC50 was < 100 nM.
On to `CCOc1cncc(-c2ccc(C(=O)NC(C)(C)c3csc(NS(=O)(=O)C4CC4)n3)c(F)c2)n1`, for which the “Selectivity (fold selectivity between CTPS1 and CTPS2)” value in assay [2] is “++ (>30-60 fold (++))”. In assay [1] (read-out: CTPS1 (Human CTPS1 Enzyme Inhibition data grouped by potency range), Table 11, ADP-Glo Max assay), the IC50 is < 100 nM.
